Assay results published in patent publication US9278981B2, “Compounds and compositions for inhibiting the activity of ABL1, ABL2 and BCR-ABL1” (Novartis AG, priority 2012, dated 2016).

What follows are molecules tested on Ba/F3-BCR-ABL1-T315I cells (assay: cells). Settings: Mus musculus, 48 h, read-out: Ba/F3-BCR-ABL1-T315I IC50 [μM].

SMILES | IC50
O=C(Nc1ccc(OC(F)(F)Cl)cc1)c1cnc(N2CC[C@@H](O)C2)c(-c2cncnc2)c1 [Example 170, (R)—N-(4-(Chlorodifluoromethoxy)phenyl)-6-(3-hydroxypyrrolidin-1-yl)-5-(pyrimidin-5-yl)nicotinamide] | 0.013 µM
O=C(Nc1ccc(C(F)(F)C(F)(F)F)cc1)c1cnc(N2CC[C@@H](O)C2)c(-c2cncnc2)c1 [Example 208, (R)-6-(3-Hydroxypyrrolidin-1-yl)-N-(4-(perfluoroethyl)phenyl)-5-(pyrimidin-5-yl)nicotinamide] | 0.13 µM
CC(F)(F)Oc1ccc(NC(=O)c2cnc(N3CC[C@@H](O)C3)c(-c3cncnc3)c2)cc1 [Example 215, (R)—N-(4-(1,1-Difluoroethoxy)phenyl)-6-(3-hydroxypyrrolidin-1-yl)-5-(pyrimidin-5-yl)nicotinamide] | 0.554 µM
O=C(Nc1ccc(S(F)(F)(F)(F)F)cc1)c1cnc(N2CC[C@@H](O)C2)c(-c2cncnc2)c1 [Example 216, (R)-6-(3-Hydroxypyrrolidin-1-yl)-5-(pyrimidin-5-yl)-N-(4-(pentafluorosulfanyl)phenyl)nicotinamide] | 0.169 µM
O=C(Nc1ccc(SC(F)(F)Cl)cc1)c1cnc(N2CC[C@@H](O)C2)c(-c2cncc(F)c2)c1 [Example 218, (R)—N-(4-((Chlorodifluoromethyl)thio)phenyl)-5′-fluoro-2-(3-hydroxypyrrolidin-1-yl)-[3,3′-bipyridine]-5-carboxamide] | 0.01 µM
O=C(Nc1ccc(OC(F)(F)Cl)cc1)c1cnc(N2CC[C@@H](CO)[C@@H](O)C2)c(-c2cncnc2)c1 [Example 257] | 0.038 µM
N#Cc1cncc(-c2cc(C(=O)Nc3ccc(OC(F)(F)Cl)cc3)cnc2N2C[C@@H](O)[C@@H](O)C2)c1 [Example 268] | 0.093 µM
N[C@H]1CN(c2ccc(C(=O)Nc3ccc(OC(F)(F)Cl)cc3)cc2-c2cncc(F)c2)C[C@@H]1O [Example 285, 4-((3S,4S)-3-Amino-4-hydroxypyrrolidin-1-yl)-N-(4-(chlorodifluoromethoxy)phenyl)-3-(5-fluoropyridin-3-yl)benzamide] | 0.165 µM
Cc1ncncc1-c1cc(C(=O)Nc2ccc(OC(F)(F)Cl)cc2)ccc1N1C[C@H](O)[C@@H](O)C1 [Example 297, N-(4-(Chlorodifluoromethoxy)phenyl)-4-((3S,4S)-3,4-dihydroxypyrrolidin-1-yl)-3-(4-methylpyrimidin-5-yl)benzamide] | 0.035 µM
